Measured values reported in ChEMBL document CHEMBL1135402, “New serotonin 5-HT(2A), 5-HT(2B), and 5-HT(2C) receptor antagonists: synthesis, pharmacology, 3D-QSAR, and molecular modeling of (aminoalkyl)benzo and heterocycloalkanones” (J Med Chem, 2002).

Protein sequences, listed by entry. Tags and fused reporters are not part of them. Lines headed by an entry give the natural chain unless they say otherwise; changes in a name come on top.
UniProt P08909: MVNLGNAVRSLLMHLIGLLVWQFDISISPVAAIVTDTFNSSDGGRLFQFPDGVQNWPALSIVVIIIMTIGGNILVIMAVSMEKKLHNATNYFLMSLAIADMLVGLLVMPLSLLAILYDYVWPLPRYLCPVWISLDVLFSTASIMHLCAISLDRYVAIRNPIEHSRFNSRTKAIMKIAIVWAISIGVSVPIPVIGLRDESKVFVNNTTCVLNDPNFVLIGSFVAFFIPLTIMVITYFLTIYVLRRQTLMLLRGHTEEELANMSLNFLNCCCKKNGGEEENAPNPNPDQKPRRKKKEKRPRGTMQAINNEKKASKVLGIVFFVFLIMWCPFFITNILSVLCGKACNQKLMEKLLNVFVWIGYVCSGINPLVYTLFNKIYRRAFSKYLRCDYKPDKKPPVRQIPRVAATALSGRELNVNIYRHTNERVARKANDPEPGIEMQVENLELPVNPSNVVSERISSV
UniProt P14842, whole entry, looked up: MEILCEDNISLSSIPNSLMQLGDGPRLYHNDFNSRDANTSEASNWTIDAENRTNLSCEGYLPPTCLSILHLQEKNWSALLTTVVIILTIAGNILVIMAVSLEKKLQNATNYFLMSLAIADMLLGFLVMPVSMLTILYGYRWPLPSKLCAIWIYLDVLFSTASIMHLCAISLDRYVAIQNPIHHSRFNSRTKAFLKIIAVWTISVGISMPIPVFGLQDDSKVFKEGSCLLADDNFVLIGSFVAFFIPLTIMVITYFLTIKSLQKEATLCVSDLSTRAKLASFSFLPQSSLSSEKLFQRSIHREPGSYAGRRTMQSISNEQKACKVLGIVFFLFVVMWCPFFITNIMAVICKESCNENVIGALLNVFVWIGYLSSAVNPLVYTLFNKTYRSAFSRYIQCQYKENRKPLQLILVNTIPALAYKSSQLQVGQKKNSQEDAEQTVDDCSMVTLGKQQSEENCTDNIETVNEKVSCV

target: Serotonin receptor 2a and 2c (5HT2A and 5HT2C) (Rattus norvegicus) (UniProt P08909+P14842); assay: Selectivity ratio towards Ki of 5-hydroxytryptamine 2A receptor to 5-hydroxytryptamine 2C receptor; assay type: protein assay

In order of falling Ratio:
1. O=C(c1ccc(F)cc1)C1CCN(CCC2Cc3ccccc3C2=O)CC1 (stereo not drawn)  66
2. O=C1CC(CN2CCC(c3noc4cc(F)ccc34)CC2)Cc2ccccc21 (stereo not drawn)  39
3. O=C(c1ccc(F)cc1)C1CCN(CCC2CCCc3ccccc3C2=O)CC1 (stereo not drawn)  38
